Most compounds without a hit are left out; they make up all but 0.24% or so of the library.
GLS inhibitor: inhibitors of human glutaminase (GLS). Potency, µM (series often up to 45.5 µM), for the others: at the highest dose activity change, negative = inhibition, most hits filed as inhibitors. hit rate 0.21% among 410,000. AID 624170. GLS enzymatic activity, qHTS titration; note: potency is the fitted concentration of half-maximal effect; % is set by controls: 0 for no effect and ±100 for the full control effect
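Compounds were pin-transferred onto hKGA, after which L-glutamine (1 mM solution) and a detection mix of glutamate oxidase, HRP and Amplex Red were added. Initial and 30 min RT fluorescence reads were collected.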
PTHR1 agonist: PTHR1 (human) receptor agonism. Potency, µM (top dose mostly 115 µM), for the others: at the top dose activation, actives largely listed as activators. HEK293 GP2 PTHR1 cells, GloSensor cAMP luminescence, 1 h. hit rate 0.075% among 410,000. Q03431. AID 743266; note: potency is the fitted concentration of half-maximal effect; nearly all actives have a fitted effect of over 55% in size
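HEK-293-derived GP2 cells expressing PTHR1 and a GloSensor cAMP reporter, 3,000/well, plated overnight, given luciferin plus IBMX (each 0.5 mM as added) for 1 h at 37 °C, then compound for 1 h at 37 °C. Luminescence was read after 15 min at room temperature.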
Eya2 phos inh: Eya2 (human) phosphatase inhibition; O00167; recombinant Eya2, OMFP fluorescence dephosphorylation (OMFP is methylfluorescein phosphate); Potency, µM (series often up to 76.9 µM), for the others: top-dose activity, negative = inhibition, hits mostly inhibitors; hit rate 0.006% among 330,000; AID 488837; note: potency is the fitted concentration of half-maximal effect; % is set by controls: 0 for no effect and ±100 for the full control effect
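Eya2 protein (added as 0.2 uM solution) was preincubated with compound for 10 min at ambient temperature in 50 mM HEPES pH 7.5, 50 mM NaCl, 5 uM MgCl2, 0.05% BSA, 1 mM DTT. OMFP (added at 50 uM) then reacted 10 min; fluorescence read at 485/525 nm.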
TSG101-PTAP inh: blocks PTAP/TSG101 interaction to inhibit HIV-1 budding. Q99816. Fluorescence polarization, FITC-PTAP peptide / Tsg101 binding. Potency, µM (highest dose often 115 µM), for the others: top-dose activity change, negative = inhibition, usual class: inhibitors. 340,000 tested, under 10 active. AID 493005; active = well fitted inhibition curve with a large enough effect in the main read-out, with a control signal flat, not every such curve was filed as active; inconclusive = small, poorly fitted or top-dose-only effect, or effect the other way, or a change in a side signal; inactive = no such curve, though single readings can be large or run the other way; note: potency is the fitted concentration of half-maximal effect; % of control where 0% means no effect
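Compounds were pin-transferred onto Tsg101 binding domain (10 uM final) in HEPES pH 7.5 buffer, then FITC-PTAP peptide was added at 50 nM final. After 20 min at RT, polarization reported peptide displacement across a qHTS concentration series.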
miR-21 reporter: miR-21 reporter, rising signal | AID 2288 | HeLa miR-21 FLuc reporter, luciferase, 48 h | 340,000 tested, under 10 active | Potency, µM (doses to about 38.3 µM), for inactives: at the top dose reporter change, positive = more light; active = well fitted rising curve with a large enough effect; inconclusive = small, poorly fitted or top-dose-only effect; inactive = no such curve, though single readings can be large or run the other way;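 note: % of control where 0% means no effect; miR-21 action dims this reporter so a rising signal means less miR-21 action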
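HeLa cells stably expressing CMV-driven firefly luciferase with a downstream miR-21 binding sequence, endogenously expressing miR-21, were treated with titrations (up to about 40uM final) for 48 hours at 37 degree Celsius. Luciferase luminescence was read after lysis.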
USP2a block: blocks human ubiquitin-specific protease USP2a. O75604. USP2 core, Ub-CHOP2 coupled fluorogenic reporter, 485/531. Potency, µM (doses to about 38.3 µM), for the others: at the highest dose activity change, negative = inhibition, hits mostly inhibitors. hit rate 0.01% among 330,000. AID 463254;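 note: potency is the fitted concentration of half-maximal effect; plate controls were DMSO wells for no effect and full inhibition by NEM control for full effect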
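Cell-free coupled assay: 10nM USP2 core preincubated 30min RT with compound in Tris-HCl pH 8.0/CaCl2/CHAPS buffer, then 25nM Ub-CHOP2 and 25nM reporter substrate; fluorescence (Ex 485/Em 531) read after 60min RT, normalized to NEM inhibition, concentration-response curves fitted.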
An asterisk follows results filed as active; i = inactive; ? = inconclusive; . = no result given. Unless noted, calls come from the whole dose curve; as a rule, active = well fitted curve in the direction sought with a large enough effect; inconclusive = small, poorly fitted or top-dose-only effect, or another doubt; inactive = no such curve, though single readings can be large; an effect the other way counts as inactive or inconclusive.

Start of the listing, in advance:
| smiles | GLS inhibitor | PTHR1 agonist | Eya2 phos inh | TSG101-PTAP inh | miR-21 reporter | USP2a block |
| --- | --- | --- | --- | --- | --- | --- |
| O=C(O)C1Nc2ccc(Br)cc2C2C=CCC12 (configuration not stated) | 7.9µM* | -3% | 5% | -15% | -2% | -1% |
| O=C(O)C1Nc2c(O)cccc2C2C=CCC12 (configuration not stated) | 13µM* | -28% | 2% | -5% | 18% | ? |
| O=C(O)C1Nc2c(Cl)cc(Cl)cc2C2C=CCC12 (configuration not stated) | 7.9µM* | -17% | 3% | -20% | 1% | -2% |

Main list, from the first entry:
| smiles | GLS inhibitor | PTHR1 agonist | Eya2 phos inh | TSG101-PTAP inh | miR-21 reporter | USP2a block |
| --- | --- | --- | --- | --- | --- | --- |
| O=C(O)C1Nc2ccc(Br)cc2C2C=CCC12 (configuration not stated) | 7.9µM* | -3% | 5% | -15% | -2% | -1% |
| O=C(O)C1Nc2c(O)cccc2C2C=CCC12 (configuration not stated) | 13µM* | -28% | 2% | -5% | 18% | ? |
| O=C(O)C1Nc2c(Cl)cc(Cl)cc2C2C=CCC12 (configuration not stated) | 7.9µM* | -17% | 3% | -20% | 1% | -2% |
| Cn1cnc(S(=O)(=O)N2CCC(C(=O)Nc3ccc(Cl)c(C(F)(F)F)c3)CC2)c1 | 8% | -36% | . | . | 16% | . |
| Cc1ccc2nc(-c3ccccc3)cn2c1 | 9% | -47% | 24% | -4% | ? | 1% |
| Cc1ccc2nc(-c3ccc(O)c(O)c3)cn2c1 | 20µM* | -19% | -7% | 1% | -25% | 0% |
| Oc1ccc(-c2csc(-c3cccnc3)n2)cc1O | 3.5µM* | -53% | -8% | -3% | -42% | 6% |
| Cc1nc(-c2ccc(O)c(O)c2)cs1 | 11µM* | -13% | 25% | 1% | -26% | 3% |
| Cc1cc(Cl)ccc1OCC(=O)N(Cc1ccc(N(C)C)cc1)CC1CCCO1 (configuration not stated) | 1% | -54% | . | . | ? | . |
| COc1ccc(OCC(=O)c2c(O)c3ccccc3oc2=O)cc1 | 25% | 18µM* | 12% | 1% | 0% | -1% |
| Cc1cccc(-n2ncc3c(Nc4ccc(Oc5ccc(Cl)cc5)cc4)ncnc32)c1 | 10% | -14% | . | . | 1% | . |
| O=C(CC1SC(=O)N(c2ccccc2)C1=O)Nc1cccc2ccccc12 (configuration not stated) | 10µM* | -7% | ? | -2% | -13% | -5% |
| COc1cc2c(cc1O)CCN[C@@]21CS[C@H]2c3c(OC(C)=O)c(C)c4c(c3C(COC1=O)N1C2C2c3c(cc(C)c(OC)c3O)CC([C@@H]1O)N2C)OCO4 (some centres not stated) | 22µM* | . | . | . | . | . |
| Cc1ccc(C)n1/N=C1/NC(=O)CS1 | 10µM* | i | -3% | -3% | -5% | -2% |
| Cc1cccc(OCCn2c(SCC(N)=O)nc3ccccc32)c1 | -6% | 5% | . | . | ? | . |
| CC(=O)c1cccc(N(C(=O)Cn2nnc3ccccc32)C(C(=O)NC2CCCCC2)c2cn(C)nc2C)c1 (configuration not stated) | 7.9µM* | i | -27% | -5% | -2% | -3% |
| CC(=O)c1ccc(N(C(=O)Cn2nnc3ccccc32)C(C(=O)NC2CCCCC2)c2cn(C)nc2C)cc1 (configuration not stated) | 2% | i | 1% | -2% | -3% | 1% |
| Cc1ccc(SCC(=O)Nc2cccc(C)c2)cc1 | -1% | ? | -2% | 2% | -17% | 5% |
| Cc1ccc(SCC(=O)Nc2ccc(C(=O)Nc3ccc(O)cc3)cc2)cc1 | -5% | i | -12% | -1% | -1% | 11µM* |
| CO[C@]1(NC(=O)Cc2cccs2)C(=O)N2C(C(=O)O)=CC(COC(N)=O)S[C@H]21 (some centres not stated) | -25% | . | . | . | . | . |

Filtered by structure: the compounds so far with an aryl methoxy group
| smiles | GLS inhibitor | PTHR1 agonist | Eya2 phos inh | TSG101-PTAP inh | miR-21 reporter | USP2a block |
| --- | --- | --- | --- | --- | --- | --- |
| COc1ccc(OCC(=O)c2c(O)c3ccccc3oc2=O)cc1 | 25% | 18µM* | 12% | 1% | 0% | -1% |
| COc1cc2c(cc1O)CCN[C@@]21CS[C@H]2c3c(OC(C)=O)c(C)c4c(c3C(COC1=O)N1C2C2c3c(cc(C)c(OC)c3O)CC([C@@H]1O)N2C)OCO4 (some centres not stated) | 22µM* | . | . | . | . | . |

(more compounds)
| smiles | GLS inhibitor | PTHR1 agonist | Eya2 phos inh | TSG101-PTAP inh | miR-21 reporter | USP2a block |
| --- | --- | --- | --- | --- | --- | --- |
| Oc1ccc(/C=N/N2CCCCC2)c(O)c1 | 6.3µM* | -1% | -9% | -3% | -36% | -2% |
| Oc1ccccc1C=NN1CCCCCC1 | ? | -30% | . | 0% | . | . |
| COc1ccc(Br)cc1/C=N/N1C(=O)CSC1=S | 20µM* | i | 7% | -15% | 1% | 2% |
| CCOC(=O)c1sc(=NC(=O)c2c(F)cccc2F)n(C)c1C | 18µM* | -12% | 8% | -4% | -59% | -2% |
| CCOC(=O)c1sc(=NC(=O)c2ccc(F)cc2)n(C)c1C | 3% | -33% | 5% | -2% | -48% | 4% |
| CC1(C(=O)O)CCC2(C)CCC3(C)C(=CC(=O)[C@@H]4C5(C)CC[C@H](O[C@H]6O[C@H](C(=O)O)C(O)C(O)[C@H]6O[C@@H]6O[C@H](C(=O)O)C(O)C(O)C6O)C(C)(C)[C@@H]5CCC43C)[C@@H]2C1 (some centres not stated) | 14µM* | . | . | . | . | . |
| Cc1[nH][nH]c(=O)c1C(c1ccc(O)c(Br)c1)c1c(C)[nH][nH]c1=O | 13µM* | -9% | -15% | -4% | 12% | -1% |
| COc1ccc(C(c2c(C)[nH][nH]c2=O)c2c(C)[nH][nH]c2=O)cc1Br | 20% | i | 2% | -1% | 3% | -1% |
| COc1cccc(/C=C(\C#N)c2nc3ccccc3[nH]2)c1OCC(=O)O | 3% | 21% | 15% | -1% | -25% | 2% |
| COc1cccc(/C=C(/C#N)c2nc3ccccc3[nH]2)c1OC(C)C(=O)O (configuration not stated) | 13µM* | i | 2% | -3% | -41% | 6% |
| Clc1cc(Cl)c(OCC#CI)cc1Cl | -26% | . | . | . | . | . |
| O=c1c2cc([N+](=O)[O-])ccc2sn1-c1ccccc1 | 10µM* | -14% | . | . | . | . |
| O=c1c2cc(F)ccc2sn1-c1ccc(F)cc1 | 10µM* | -89% | -18% | -1% | . | 0% |
| COc1ccc(-n2sc3ccc(F)cc3c2=O)cc1 | ? | -92% | 3% | . | . | 0% |
| CC(=O)Nc1ccc2sn(-c3ccccc3)c(=O)c2c1 | 6.3µM* | -13% | . | . | . | . |
| CCn1c2ccccc2c2cc(NC(C)=O)ccc21 | 9% | -1% | -5% | -1% | -12% | 4% |
| N#Cc1ccc2sn(-c3ccccc3)c(=O)c2c1 | 6.3µM* | -22% | . | . | . | . |
| COc1ccccc1CNC(=O)CN1C(=O)COc2ccc(S(=O)(=O)N3CCC(C)CC3)cc21 | -11% | -4% | . | . | -4% | . |
| CSc1cccc(NC(=O)CC(c2ccc(F)cc2)N2Cc3ccccc3C2=O)c1 (configuration not stated) | -12% | -62% | . | . | ? | . |
| Cc1ccc(/C=N/n2c(-c3ccccc3)csc2=S)cc1 | -5% | . | . | . | . | . |

Next entries.
| smiles | GLS inhibitor | PTHR1 agonist | Eya2 phos inh | TSG101-PTAP inh | miR-21 reporter | USP2a block |
| --- | --- | --- | --- | --- | --- | --- |
| COc1ccc(-c2c(C)c3ccc(O)c(CN4CCC(C)CC4)c3oc2=O)cc1OC | 0% | -72% | . | . | -2% | . |
| CCCCC/C=C\C/C=C\C/C=C\C/C=C\CCCC(=O)O | . | . | 4% | . | . | 0% |
| CC/C=C\C/C=C\C/C=C\C/C=C\C/C=C\CCCC(=O)O | 32µM* | . | . | . | . | . |
| CC/C=C\C/C=C\C/C=C\CCCCCCCC(=O)O | 22µM* | -15% | 9% | 0% | . | 0% |
